Drawing on paper PMC9861714, “Biological Evaluation of Valeriana Extracts from Argentina with Potent Cholinesterase Inhibition for the Treatment of Neurodegenerative Disorders and Their Comorbidities—The Case of Valeriana carnosa Sm. (Caprifoliaceae) Studied in Mice” (Pharmaceuticals, 2023), this text covers IC50 for 1 compound.

By UniProt entry, the sequences of proteins in these tests, tags left out.
UniProt P21397, whole entry: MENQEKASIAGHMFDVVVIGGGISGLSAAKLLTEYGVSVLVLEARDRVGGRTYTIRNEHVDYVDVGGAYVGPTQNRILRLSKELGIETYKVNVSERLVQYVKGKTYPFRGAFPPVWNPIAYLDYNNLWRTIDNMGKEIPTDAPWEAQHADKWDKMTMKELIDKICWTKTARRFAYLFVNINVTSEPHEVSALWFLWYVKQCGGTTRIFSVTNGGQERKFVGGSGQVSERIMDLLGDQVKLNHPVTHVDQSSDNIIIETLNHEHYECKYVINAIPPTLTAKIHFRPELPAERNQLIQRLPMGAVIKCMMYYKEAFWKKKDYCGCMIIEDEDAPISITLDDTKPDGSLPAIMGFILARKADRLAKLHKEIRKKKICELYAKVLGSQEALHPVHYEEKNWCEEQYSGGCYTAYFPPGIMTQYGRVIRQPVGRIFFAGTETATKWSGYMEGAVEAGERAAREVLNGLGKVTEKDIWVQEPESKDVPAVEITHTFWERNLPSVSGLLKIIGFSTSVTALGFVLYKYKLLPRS

This assay deals with T1, hMAO-A (Homo sapiens, UniProt P21397).
T1 construct: gene MAOA

For orientation: IC50 means the concentration that inhibits the measured activity by half. Read a low IC50 as greater potency. The compound `C#CCN(C)Cc1ccccc1` [Pargyline] registered an IC50 of 3.97 ± 0.275 µM.
